Measured values: paper PMC11772769, “Selective cargo and membrane recognition by SNX17 regulates its interaction with Retriever” (EMBO Reports, 2024)

Key:
[1] = molecular target: Peptide SNX17_(CT-18) (UniProt Q15036); test: fluorescence polarisation
[2] = molecular target: His-Sumo3-SNX17 (UniProt Q15036); test: co-sedimentation

Substance: Retriever complex (from UniProt O14972 1-297; Q9UBQ0 1-182; Q7Z3J2 1-963)
- Kd [1]: 5.7 µM

Substance: Retriever complex (from UniProt O14972 1-297; Q9UBQ0 1-182; Q7Z3J2 1-963) (complex; other documents disagree on this pair)
- percent of Retriever sedimented with PI3P liposomes in the presence of SNX17 [2]: 22%
